This is an account of results in patent US10564159.

In the test the target is human TSH receptor (wild type), displayed on CHO-Rluc cells (human) (UniProt P16473). Briefly: cell-based or functional assay.

Take “bovine TSH (from UniProt P01217 25-120; P01223 21-132) (ligand)”: the luciferase RLU/Sec (net of 0 TSH), 10 µIU TSH/ml, CHO-Rluc cells, Starvation Medium HBSS-NaCl + 222 mM sucrose turned out to be 2190 RLU/Sec; the luciferase RLU/Sec (net of 0 TSH), 10 µIU TSH/ml, CHO-Rluc cells, Starvation Medium standard HBSS with 20 mM sucrose is 14400 RLU/Sec; the luciferase RLU/Sec (net of 0 TSH), 10 µIU TSH/ml, CHO-Rluc cells, Stimulation Medium HBSS-NaCl + 111 mM sucrose + 6% PEG-8000 came out at 5980 RLU/Sec; the luciferase RLU/Sec (net of 0 TSH), 10 µIU TSH/ml, CHO-Rluc cells, Stimulation Medium HBSS-NaCl + 222 mM sucrose (no PEG) was found to be 1340 RLU/Sec. In addition, the luciferase RLU/Sec (net of 0 TSH), 10 µIU TSH/ml, CHO-Rluc cells, medium CHO Char came to 5600 RLU/Sec; the luciferase RLU/Sec (net of 0 TSH), 10 µIU TSH/ml, CHO-Rluc cells, medium CHO GM was 782 RLU/Sec; the luciferase RLU/Sec (net of 0 TSH), 1000 µIU TSH/ml, CHO-Rluc cells, Starvation Medium HBSS-NaCl + 222 mM sucrose came out at 143000 RLU/Sec; the luciferase RLU/Sec (net of 0 TSH), 1000 µIU TSH/ml, CHO-Rluc cells, Starvation Medium standard HBSS with 20 mM sucrose is 157000 RLU/Sec. Also, the luciferase RLU/Sec (net of 0 TSH), 1000 µIU TSH/ml, CHO-Rluc cells, Stimulation Medium HBSS-NaCl + 111 mM sucrose + 6% PEG-8000 amounted to 208000 RLU/Sec; the luciferase RLU/Sec (net of 0 TSH), 1000 µIU TSH/ml, CHO-Rluc cells, Stimulation Medium HBSS-NaCl + 222 mM sucrose (no PEG) is 82500 RLU/Sec; the luciferase RLU/Sec (net of 0 TSH), 1000 µIU TSH/ml, CHO-Rluc cells, medium CHO Char was 229000 RLU/Sec; the luciferase RLU/Sec (net of 0 TSH), 1000 µIU TSH/ml, CHO-Rluc cells, medium CHO GM worked out at 265000 RLU/Sec. Further, the luciferase RLU/sec (net of 0 TSH), 10 µIU TSH/ml, CHO-Rluc cells starved with Stimulation Medium is -1150 RLU/sec; the luciferase RLU/sec (net of 0 TSH), 1000 µIU TSH/ml, CHO-Rluc cells starved with Stimulation Medium worked out at 47500 RLU/sec; the luciferase RLU/sec (net of zero standard), 10 µIU bovine TSH, CHO-Rluc cells, method of Evans et al. came to 4030 RLU/sec; the luciferase RLU/sec (net of zero standard), 1000 µIU bovine TSH, CHO-Rluc cells, method of Evans et al. stood at 223000 RLU/sec. The luciferase RLU/sec, bTSH 10 µIU/ml, CHO-Rluc cells is 5920 RLU/sec; the luciferase RLU/sec, bTSH 25 µIU/ml, CHO-Rluc cells turned out to be 20200 RLU/sec; the luciferase RLU/sec, bTSH 50 µIU/ml, CHO-Rluc cells amounted to 34400 RLU/sec; the luciferase RLU/sec, bTSH 75 µIU/ml, CHO-Rluc cells was 54400 RLU/sec. The same substance showed a luciferase RLU/sec, bTSH 100 µIU/ml, CHO-Rluc cells of 62200 RLU/sec and a three S.D. sensitivity of the luciferase response of CHO-Rluc cells to bTSH of 1.3 µIU TSH/ml.
